In PubChem BioAssay AID463254 (National Center for Advancing Translational Sciences (NCATS), 2010):
This is a selection; strong and weak results do not stand in their true shares. Activity calls are given as the source filed them. Calls follow the shape of the dose curve; as a rule, active = well fitted inhibition curve with a large enough effect; inconclusive = small, poorly fitted or top-dose-only effect, or effect the other way; inactive = flat fitted curve, though single readings scatter.

Chains of the proteins cited; added tags and fusions are not shown.
UniProt O75604, whole entry: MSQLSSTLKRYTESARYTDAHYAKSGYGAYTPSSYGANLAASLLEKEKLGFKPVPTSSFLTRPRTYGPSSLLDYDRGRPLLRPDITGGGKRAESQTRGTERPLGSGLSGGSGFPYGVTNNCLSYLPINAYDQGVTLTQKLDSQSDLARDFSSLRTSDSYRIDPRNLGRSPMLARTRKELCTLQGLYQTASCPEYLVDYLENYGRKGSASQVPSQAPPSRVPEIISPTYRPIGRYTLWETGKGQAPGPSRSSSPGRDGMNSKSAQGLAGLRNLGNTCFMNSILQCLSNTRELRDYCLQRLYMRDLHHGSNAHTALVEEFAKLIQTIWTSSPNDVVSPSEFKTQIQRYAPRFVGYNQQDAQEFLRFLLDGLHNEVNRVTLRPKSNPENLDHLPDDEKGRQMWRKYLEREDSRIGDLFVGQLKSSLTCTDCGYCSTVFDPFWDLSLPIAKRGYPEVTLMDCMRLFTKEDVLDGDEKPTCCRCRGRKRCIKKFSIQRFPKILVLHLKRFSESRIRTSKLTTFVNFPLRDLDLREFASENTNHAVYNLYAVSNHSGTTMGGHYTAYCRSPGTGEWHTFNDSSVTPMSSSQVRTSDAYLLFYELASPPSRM

Target: Ubiquitin carboxyl-terminal hydrolase 2 (Homo sapiens) (UniProt O75604)
Assay: qHTS Assay for Inhibitors of Ubiquitin-specific Protease USP2a Using CHOP2 as the Reporter;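 also: plate controls were DMSO wells for no effect and full inhibition by NEM control for full effect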
Conditions: USP2 core, Ub-CHOP2 coupled fluorogenic reporter, 485/531; at 38.3 µM (top of the series)
From the text: NIH Molecular Libraries Screening Centers Network [MLSCN] NIH Chemical Genomics Center [NCGC] MLSCN Grant: XO1-MH079852-01 PI Name: Nicholson, Ben. Progenra Inc, Malvern, PA NCGC Assay Overview: Homeostasis of cellular proteins is maintained through a combination of synthesis and degradation. The pathway that accounts for the majority of protein degradation is the ubiquitin-proteasomal pathway. Ubiquitin (Ub) is highly conserved in all cells and the generation of a multi-Ub chain typically targets proteins for degradation by the proteasome. However, ubiquitination is highly reversible and dynamic. Deubiquitination, the reverse process, is catalyzed through the action of enzymes referred to as isopeptidases or deubiquitinating enzymes (DUBs). This group of enzymes is collectively responsible for maintaining adequate pools of free ubiquitin and regulating the ubiquitination status of cellular proteins. The class of DUBs referred to as the ubiquitin-specific proteases (USP) family functions endoproteolytically to cleave Ub chains from a wide range of protein substrates. USP2a deubiquitinates fatty acid synthase (FASN) which has recently been identified as an emerging oncology target. To identify inhibitors of USP2a a cell-free assay was employed. […] The reporter enzyme chosen is an enterokinase called CHOP2, which is activated when the Ub is cleaved by USP2. The free and now activated reporter can subsequently act on its reporter substrate. Thus, this coupled assay gives a fluorescent read-out at excitation/emission wavelengths of 485/531. The assay was developed by Progenra, Inc. and has been licensed for sale by LifeSensors, Inc. as Ub-CHOP2-Reporter-Kit (#PR1101).
NCGC Assay Protocol Summary: The assay buffer, prepared fresh at the day of the assay, contains 20mM Tris-HCl pH 8.0, 2mM CaCl2, 2mM beta-Mercaptoethanol, 0.05% CHAPS. 3ul of 20nM (10nM final) USP2 core, which is stored on ice, is dispensed into a medium-binding black solid Kalypsys 1,536 well plate using the Kalypsys dispenser. The assay plate is then pinned with 23nL compound with the Kalypsys pintool in columns 5-48. The controls are pinned as follows: column 1 two-fold dilutions of 2M NEM in duplicate; column 2 2M NEM (final concentration 38.2mM); column 3&4 DMSO. The assay plate is incubated at RT for 30min. Subsequently, 1.5uL of 100nM (25nM final) Ub-CHOP2 and 1.5uL of 100nM (25nM final) Reporter Substrate (both stored on ice and protected from light) were dispensed into the plate using the Kalypsys dispenser. Plates were read after 60min RT incubation on a ViewLux (Perkin Elmer) plate reader using the following wavelengths Ex 485nm /Em 531nm. Data were normalized to the to AC100 inhibition (NEM). Concentration-response curves were fitted to the normalized data and the concentration-response curves were then classified based on curve quality (r2), response magnitude and degree of measured activity. The time zero reading was used to flag fluorescence artifacts. Keywords: ubiquitination, deubiquitination, proteases, profluorescent, MLSMR, MLPCN, NIH Roadmap, qHTS, NCGC

Row | SMILES | activity change, negative = inhibition
1 | COc1ccccc1OP(C)(=O)Nc1cccc(Br)c1 (centres undefined) | inactive: -1.91%
2 | CCOC(=O)c1ccc(NP(C)(=O)Oc2cc(C)cc(C)c2)cc1 (centres undefined) | inactive: -0.427%
3 | Cc1cc(C)cc(OP(C)(=O)Nc2ccc(C)cc2C)c1 (centres undefined) | inactive: 1.6%
4 | Cc1ccc(C)c(NP(C)(=O)Oc2ccccc2)c1 (centres undefined) | inactive: 1.41%
5 | CP(=O)(Nc1cccc(Br)c1)Oc1ccccc1 (centres undefined) | inactive: 0.0286%
6 | Cc1cc(C)cc(OP(C)(=O)Nc2ccccn2)c1 (centres undefined) | inactive: 3.89%
7 | CC1=NCCc2c1[nH]c1ccccc21.O=[N+]([O-])c1cc([N+](=O)[O-])c(O)c([N+](=O)[O-])c1 | inactive: -1.84%
8 | O=[N+]([O-])c1cc([N+](=O)[O-])c(Nc2nnnn2CCO)c([N+](=O)[O-])c1 | inactive: -11.4%
9 | CC1=C2N=C(C=C3N=C(C(C)=C4[N-][C@@](C)([C@@H]5N=C1[C@](C)(CCC(=O)NC[C@@H](C)OP(=O)([O-])O[C@H]1[C@@H](O)[C@@H](n6cnc7cc(C)c(C)cc76)O[C@@H]1CO)[C@H]5CC(N)=O)[C@@](C)(CC(N)=O)[C@@H]4CCC(N)=O)[C@@](C)(CC(N)=O)[C@@H]3CCC(N)=O)C(C)(C)[C@@H]2CCC(N)=O.[C-]#N.[Co+3] | inactive: 2.54%
10 | CN1CCCCC1COC(=O)C1(O)c2ccccc2CCc2ccccc21 (centres undefined) | inactive: -1.28%
11 | COc1ccccc1OP(C)(=O)Nc1c(C)cccc1C (centres undefined) | inactive: 1.08%
12 | CP(=O)(Nc1ccc(SC(F)(F)F)cc1)Oc1ccccc1 (centres undefined) | inactive: -0.222%
13 | CCCOc1ccc(NP(C)(=O)Oc2ccc(Cl)cc2)cc1 (centres undefined) | inactive: 4.42%
14 | O=[N+]([O-])c1cc([N+](=O)[O-])c(-n2nnc3ccccc32)c([N+](=O)[O-])c1 | inactive: 0.128%
15 | Cc1nc2ccc3ccccc3c2s1.O=[N+]([O-])c1cc([N+](=O)[O-])c(O)c([N+](=O)[O-])c1 | inactive: -1.75%
16 | CP(=O)(Nc1ccc(SC(F)(F)F)cc1)Oc1ccc(Cl)cc1 (centres undefined) | inactive: -1.07%
17 | Cc1cccc(C)c1OP(C)(=O)Nc1ccc(SC(F)(F)F)cc1 (centres undefined) | inactive: 0.5%
18 | CP(=O)(Oc1ccccc1)OC(c1ccccc1)C(F)(F)F (centres undefined) | inactive: 11.4%
19 | CCc1ccc(OP(C)(=O)N2CCN(c3ccc([N+](=O)[O-])cc3)CC2)cc1 (centres undefined) | inactive: 2.96%
20 | CP(=O)(NC(=O)Nc1ccccc1)Oc1ccccc1 (centres undefined) | inactive: 2.82%

Row | SMILES | activity change, negative = inhibition
21 | Cc1cc(C)cc(OP(C)(=O)Nc2ccc(SC(F)(F)F)cc2)c1 (centres undefined) | inactive: 5.15%
22 | CCOC(=O)c1ccc(NP(C)(=O)Oc2ccc(OC)cc2)cc1 (centres undefined) | inactive: 0.441%
23 | CCOP(C)(=S)SCC(=O)NC(C)C(=O)O (centres undefined) | inactive: 4.67%
24 | CP(=S)(Nn1cnnc1)Oc1ccccc1 (centres undefined) | inactive: 3.68%
25 | CP(=O)(Nc1ccccc1Br)Oc1ccccc1 (centres undefined) | inactive: 1.27%
26 | COc1ccccc1OP(C)(=O)Nc1ccccc1 (centres undefined) | inactive: 0.0622%
27 | O=[N+]([O-])c1cc([N+](=O)[O-])c(Nc2cccnc2)c([N+](=O)[O-])c1 | inactive: -0.843%
28 | O=[N+]([O-])c1ccc2c(c1)C=Nc1ccccc1O2 | inactive: 0.881%
29 | CC(C)(C)c1ccc(OP(C)(=O)Nc2ccc(SC(F)(F)F)cc2)cc1 (centres undefined) | inactive: -1.67%
30 | Cc1cccc(C)c1OP(C)(N)=O (centres undefined) | inactive: 6.01%
31 | COc1ccccc1OP(C)(=O)Nc1ccc(C)cc1 (centres undefined) | inactive: -0.415%
32 | Cc1ccc(NP(C)(=O)Oc2ccccc2)c(C)c1 (centres undefined) | inactive: -6.21%
33 | CCOC(=O)c1ccc(NP(C)(=O)Oc2ccccc2)cc1 (centres undefined) | inactive: -3.77%
34 | Cc1cc(C)cc(OP(C)(N)=O)c1 (centres undefined) | inactive: 2.89%
35 | COc1ccccc1OP(C)(=O)Nc1cc(Cl)ccc1C (centres undefined) | inactive: 0.383%
36 | COc1ccc(OP(C)(=O)Nc2cccc(F)c2)cc1 (centres undefined) | inactive: 1.72%
37 | CCN(CC)CCCOC(=O)C(O)(c1ccccc1)c1ccccc1 | inactive: -0.362%
38 | COc1ccccc1OP(C)(=O)Nc1ccc(Br)cc1 (centres undefined) | inactive: 1.13%
39 | COc1ccc(OP(C)(=O)Nc2ccccn2)cc1 (centres undefined) | inactive: -1.9%
40 | CN(C)CCOC(=O)C(O)(c1ccccc1)C1CCCC1 (centres undefined) | inactive: -1.17%

Row | SMILES | activity change, negative = inhibition
41 | O=[N+]([O-])c1cc([N+](=O)[O-])c(Nc2ccccn2)c([N+](=O)[O-])c1 | inactive: 5.6%
42 | Cc1c(NP(C)(=O)Oc2ccc(C(C)C)cc2)c(=O)n(-c2ccccc2)n1C (centres undefined) | inactive: -1.38%
43 | CP(=O)(Nc1ccccn1)Oc1ccccc1 (centres undefined) | inactive: -0.768%
44 | COc1ccccc1OP(C)(=O)Nc1ccc(C)cc1C (centres undefined) | inactive: 1.49%
45 | CCc1ccc(OP(C)(=O)O)cc1 | inactive: 1.91%
46 | Cc1cc(C)cc(OP(C)(=O)Nc2cccc(C(F)(F)F)c2)c1 (centres undefined) | inactive: 8.72%
47 | COc1ccccc1OP(C)(=O)Nc1ccc(C)c(C)c1 (centres undefined) | inactive: 0.816%
48 | COc1ccc(OP(C)(=O)Nc2ccccc2Br)cc1 (centres undefined) | inactive: 0.458%
49 | Cc1nc2ccc3ccccc3c2o1.O=[N+]([O-])c1cc([N+](=O)[O-])c(O)c([N+](=O)[O-])c1 | inactive: -5.07%
50 | CP(=O)(OCCOc1ccccc1)OCCOc1ccccc1 | inactive: 3.32%
51 | CP(=O)(Nc1ccc(Cl)cc1Cl)Oc1ccccc1 (centres undefined) | inactive: 2.35%
52 | CCOC(=O)c1ccc(NP(C)(=O)Oc2ccc(Cl)cc2)cc1 (centres undefined) | inactive: 2.1%
53 | CP(=O)(OC12CC3CC(CC(C3)C1)C2)OC12CC3CC(CC(C3)C1)C2 | inactive: -3.32%
54 | CCN(CC)CC(O)COC(=O)C(O)(c1ccccc1)C1CCCCC1 (centres undefined) | inactive: -0.455%
55 | COc1ccc(OP(C)(=O)Nc2ccc(Br)cc2)cc1 (centres undefined) | inactive: 0.14%
56 | COc1ccccc1OP(C)(=O)Nc1c(C)n(C)n(-c2ccccc2)c1=O (centres undefined) | inactive: -0.0136%
57 | O=C(OCCCN1CCCC1)C(O)(c1ccccc1)C1CCCCC1 (centres undefined) | inactive: -2.63%
58 | CP(=O)(Oc1ccccc1)N1CCOC1=O (centres undefined) | inactive: 1.04%
59 | CCc1ccc(OP(C)(=O)Nc2cccnc2)cc1 (centres undefined) | inactive: -0.99%
